Amino acid sequences for entries named in this document (tags omitted).
UniProt Q13639, whole entry, species assumed: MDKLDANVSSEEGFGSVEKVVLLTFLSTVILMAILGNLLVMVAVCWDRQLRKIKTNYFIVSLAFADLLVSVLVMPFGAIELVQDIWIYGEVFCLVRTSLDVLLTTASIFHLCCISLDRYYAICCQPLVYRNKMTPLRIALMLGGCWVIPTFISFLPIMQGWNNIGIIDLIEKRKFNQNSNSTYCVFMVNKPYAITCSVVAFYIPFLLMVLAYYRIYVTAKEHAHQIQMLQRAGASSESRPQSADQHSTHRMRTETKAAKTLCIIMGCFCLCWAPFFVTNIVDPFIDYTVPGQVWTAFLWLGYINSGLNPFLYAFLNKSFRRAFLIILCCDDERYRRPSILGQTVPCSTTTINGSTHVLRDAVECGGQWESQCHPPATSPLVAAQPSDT

In patent US10434181B2, “Oligomer-containing benzamide-based compounds” (Nektar Therapeutics, priority 2012, dated 2019):

What was measured:
[1] = biological target: 5HT4B receptors (serotonin 4B receptors) (Homo sapiens, UniProt Q13639); assay: Competition binding assay (serotonin 4B receptors), [3H]GR113808; details: [3H]GR113808 competition, HEK 293 membranes expressing 5HT4B
[2] = biological target: serotonin 4 receptor (5HT4) (Homo sapiens, UniProt Q13639); assay: cAMP accumulation assay (serotonin 4 receptors); details: CHO-K1 cells stably expressing 5HT4

## CCN(CC)CCNC(=O)c1cc(Cl)c(N)cc1OC [Metoclopramide, N-(2-diethylaminoethyl)-2-methoxy-4-amino-5-chlorobenzamide, reference compound]
[1]; IC50 [M]
  IC50: 1.52e-05 M
[1]; IC50 [nM]
  IC50: 1.52e-05 M
[2]; IC50 [M]
  IC50: 1.02e-06 M
[2]; IC50 [μM]
  IC50: 1.02e-06 M
